These are literature values, as cited in patent US20090186081A1, “Disintegrating Loadable Tablets” (LifeCycle Pharma A/S, priority 2006, published 2009).

The conditions of this data set: Table 1, Poorly-Soluble Drug Candidates.

On to Medroxyprogesterone, for which the “Solubility In Water” value is on record as “Insoluble”.
